Values of other authors as cited in paper PMC5488175, “A New Methodology for Incorporating Chiral Linkers into Stapled Peptides” (Chembiochem, 2017).

Conditions: cited from earlier work
Text: The A isomers of peptides stapled with linker 1, with the except ...

## wild‐type p53_17–29 peptide: wild-type p53 peptide, residues 17–29
  Helicity reported for the wild-type peptide: 10%
